What follows are compounds tested against BRD4 BD1 (Homo sapiens (Human), UniProt O60885). Conditions: read-out: BRD4 Alpha IC50.

| Structure (SMILES) | IC50 [µM] |
| --- | --- |
| CC(=O)N1CCc2c(c(Nc3ccc(-c4cnn(C)c4C)cc3F)nn2C2CCOC2)C1 (stereo not shown) | 5.01 |
| CC(=O)N1CCc2c(c(Nc3cccc(C)c3)nn2CCC#N)C1 [Example 214] | 14.6 |
| CC(=O)N1CCc2c(c(Nc3cccc(C(=O)N(C)C)c3)nn2CC2CC2)C1 | 9.72 |
| CC(=O)N1CCc2c(c(Nc3ccc(-c4cnn(C)c4)cc3)nn2CCC(N)=O)C1 | 15.9 |
| CC(=O)N1CCc2c(c(Nc3cccc(C)c3)nn2CCC2CCCNC2)C1 (stereo not shown) [Example 215] | 5.88 |
| CC(=O)N1CCc2c(c(Nc3ccc(-c4cccc(OC(F)(F)F)c4)cc3)nn2C)C1 | 6.2 |
| CC(=O)N1CCc2c(c(Nc3ccc(-c4cnn(C)c4)cc3Cl)nn2C2CCOC2)C1 (stereo not shown) | 4.13 |
